One experiment has as its target rat P2X7 (Rattus norvegicus (Rat), UniProt Q64663). The experiment is described as follows: Ca2+ flux (FLIPR) in 1321N1 cells expressing recombinant rat P2X7.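 Also: Calcium-4 dye fluorescence change read 180 s after agonist addition, with cells preincubated 30 min with compound and dye in 96-well plates.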 It counts as cell-based. (In general: A change in cytosolic calcium serves as a functional read-out for many receptors and channels.)
In experiment [1] the target is T1, human P2X7 (Homo sapiens (Human), UniProt Q99572). Kind of experiment: Ca2+ flux (FLIPR) in 1321N1 cells expressing recombinant human P2X7.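 Also: cells loaded with Calcium-4 dye, preincubated with test compound for 30 min, fluorescence change read 180 s after agonist addition.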 It counts as cell-based.
Experiment [2] has as its target T1, human P2X7. Kind of experiment: Radioligand binding ([3H]A-804598), human P2X7-1321N1 cell membranes.
Setting [3] is: 1321N1 cells, recombinant rat P2X7, 250 μM BzATP.
[4] abbreviates: 1321N1 cells, recombinant human P2X7, 250 μM BzATP.
[5] abbreviates: human P2X7-1321N1 membranes, tritiated A-804598.
Setting [6] is: Ca2+ flux, 250 μM BzATP, rat P2X7 1321N1 cells.

Chains of the proteins cited; added tags and fusions are not shown. Lines headed by an entry give the natural chain unless they say otherwise; changes in a name come on top.
UniProt Q64663: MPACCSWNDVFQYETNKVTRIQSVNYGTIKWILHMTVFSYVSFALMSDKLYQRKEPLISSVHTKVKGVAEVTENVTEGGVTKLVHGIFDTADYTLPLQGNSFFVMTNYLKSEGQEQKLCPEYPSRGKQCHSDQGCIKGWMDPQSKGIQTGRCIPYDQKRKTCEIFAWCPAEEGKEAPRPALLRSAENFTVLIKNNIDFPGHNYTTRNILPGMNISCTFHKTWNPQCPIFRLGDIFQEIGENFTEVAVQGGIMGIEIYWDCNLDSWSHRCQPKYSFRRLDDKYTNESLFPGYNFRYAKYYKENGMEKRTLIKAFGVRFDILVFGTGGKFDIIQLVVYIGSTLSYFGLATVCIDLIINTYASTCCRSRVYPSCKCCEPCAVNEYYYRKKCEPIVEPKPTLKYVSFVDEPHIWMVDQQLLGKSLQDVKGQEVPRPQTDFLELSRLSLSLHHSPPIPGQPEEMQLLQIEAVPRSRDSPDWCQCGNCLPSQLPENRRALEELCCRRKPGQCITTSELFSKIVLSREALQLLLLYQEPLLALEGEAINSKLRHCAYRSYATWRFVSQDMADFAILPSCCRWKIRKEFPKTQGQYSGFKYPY
UniProt Q99572: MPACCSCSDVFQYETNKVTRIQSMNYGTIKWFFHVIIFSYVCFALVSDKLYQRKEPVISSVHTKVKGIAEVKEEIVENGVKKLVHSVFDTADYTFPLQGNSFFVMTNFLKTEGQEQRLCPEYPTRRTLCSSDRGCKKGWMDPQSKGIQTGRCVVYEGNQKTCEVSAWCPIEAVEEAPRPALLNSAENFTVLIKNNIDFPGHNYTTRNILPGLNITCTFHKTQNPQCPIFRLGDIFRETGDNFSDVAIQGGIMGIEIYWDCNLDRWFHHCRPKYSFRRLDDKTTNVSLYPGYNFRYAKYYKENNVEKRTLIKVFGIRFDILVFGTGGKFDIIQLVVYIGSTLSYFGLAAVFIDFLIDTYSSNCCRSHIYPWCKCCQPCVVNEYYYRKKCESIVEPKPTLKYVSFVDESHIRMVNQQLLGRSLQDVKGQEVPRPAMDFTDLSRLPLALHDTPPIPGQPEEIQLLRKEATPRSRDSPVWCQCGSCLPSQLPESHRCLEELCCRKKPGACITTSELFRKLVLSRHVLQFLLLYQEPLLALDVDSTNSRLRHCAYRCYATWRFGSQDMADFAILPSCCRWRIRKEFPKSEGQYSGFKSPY

With `Cc1ccnc(-n2nnc3c2CCN(C(=O)c2cccc(C(F)(F)F)c2Cl)[C@@H]3C)c1` (single isomer, unassigned) [Example 185, (R*)-(2-chloro-3-(trifluoromethyl)phenyl)(4-methyl-1-(4-methylpyridin-2-yl)-6,7-dihydro-1H-[1,2,3]triazolo[4,5-c]pyridin-5(4H)-yl)methanone], the IC50 (commonly the concentration needed to halve the response being measured) at rat P2X7 (setting [3]) is 39.8 nM.
As to `Cc1cc(-n2nnc3c2CCN(C(=O)c2ccc(Cl)c(C(F)(F)F)c2)C3C)ncc1F` (stereo not drawn) [Example 364, (4-chloro-3-(trifluoromethyl)phenyl)(1-(5-fluoro-4-methylpyridin-2-yl)-4-methyl-6,7-dihydro-1H-[1,2,3]triazolo[4,5-c]pyridin-5(4H)-yl)methanone], the IC50 on human P2X7 [1] (setting [4]) amounted to 1240 nM.
On to `Cc1c(C(=O)N2CCc3c(ncn3-c3ccc(F)cn3)C2C)cccc1C(F)(F)F` (stereo not drawn) [Example 263, (1-(5-fluoropyridin-2-yl)-4-methyl-6,7-dihydro-1H-imidazo[4,5-c]pyridin-5(4H)-yl)(2-methyl-3-(trifluoromethyl)phenyl)methanone], for which, at rat P2X7 (setting [3]), the half-maximal inhibitory concentration (IC50) turned out to be 2710 nM.
For the compound `C[C@@H]1c2ncn(-c3ccc(F)cc3)c2CCN1C(=O)c1cccc(C(F)(F)F)c1Cl` (single isomer, unassigned) [Example 46, (4R*)-5-{[2-Chloro-3-(trifluoromethyl)phenyl]carbonyl}-1-(4-fluorophenyl)-4-methyl-4,5,6,7-tetrahydro-1H-imidazo[4,5-c]pyridine], the IC50 at human P2X7 [1] (setting [4]) is 66.5 nM.
With `O=C(c1cccc(Cl)c1Cl)N1CCc2c(ncn2-c2ccccc2)C1` [Example 3, (2,3-Dichlorophenyl)(1-phenyl-6,7-dihydro-1H-imidazo[4,5-c]pyridin-5(4H)-yl)methanone], on rat P2X7 (setting [3]), the IC50 was 4010 nM.
On to `O=C(c1cccc(C(F)(F)F)c1Cl)N1CCc2c(ncn2-c2ccccc2)C1CO` (stereo not drawn) [Example 30, (5-{[2-Chloro-3-(trifluoromethyl)phenyl]carbonyl}-1-phenyl-4,5,6,7-tetrahydro-1H-imidazo[4,5-c]pyridin-4-yl)methanol], for which the IC50 was found to be 3620 nM on rat P2X7 (setting [3]) and 1130 nM at human P2X7 [1] (setting [4]).
Consider `Cc1ccnc(-n2nnc3c2CCN(C(=O)c2cccc(C(F)(F)F)c2Cl)[C@H]3C)c1` (single isomer, unassigned) [Example 186, (S*)-(2-chloro-3-(trifluoromethyl)phenyl)(4-methyl-1-(4-methylpyridin-2-yl)-6,7-dihydro-1H-[1,2,3]triazolo[4,5-c]pyridin-5(4H)-yl)methanone], for which the IC50 at rat P2X7 (setting [3]) is > 10000 nM.
Regarding `Cc1cccc(-n2nnc3c2CCN(C(=O)c2cccc(C(F)(F)F)c2F)C3C)n1` (stereo not drawn) [Example 385, (2-fluoro-3-(trifluoromethyl)phenyl)(4-methyl-1-(6-methylpyridin-2-yl)-6,7-dihydro-1H-[1,2,3]triazolo[4,5-c]pyridin-5(4H)-yl)methanone], the Ki (commonly a dissociation constant, usually derived from enzyme kinetics or from competition with a known ligand) at human P2X7 [2] (setting [5]) is 100 nM.
In the case of `C[C@H]1Cc2c(nnn2-c2ccn[nH]2)CN1C(=O)c1cccc(C(F)(F)F)c1Cl` (single isomer, unassigned) [Example 351, (S*)-(2-chloro-3-(trifluoromethyl)phenyl)(6-methyl-1-(1H-pyrazol-5-yl)-6,7-dihydro-1H-[1,2,3]triazolo[4,5-c]pyridin-5(4H)-yl)methanone], the affinity on human P2X7 [2] (setting [5]) corresponds to a Ki of 10 nM. Further, on human P2X7 [1] (setting [4]), the IC50 was 1.2 nM.
For `Cc1ccnc(-n2nnc3c2CCN(C(=O)c2cccc(OC(F)(F)F)c2)C3C)c1` (stereo not drawn) [Example 375, (4-methyl-1-(4-methylpyridin-2-yl)-6,7-dihydro-1H-[1,2,3]triazolo[4,5-c]pyridin-5(4H)-yl)(3-(trifluoromethoxy)phenyl)methanone], the IC50 on rat P2X7 (setting [3]) was > 10000 nM.
On the same count and under the same terms, for `O=C(c1cccc(C(F)(F)F)c1Cl)N1CCc2c(nnn2-c2cnccn2)C1` [Example 91, 5-{[2-Chloro-3-(trifluoromethyl)phenyl]carbonyl}-1-pyrazin-2-yl-4,5,6,7-tetrahydro-1H-[1,2,3]triazolo[4,5-c]pyridine] the value was 2510 nM.
`Cc1ccnc(-n2nnc3c2CCN(C(=O)c2cccc(Cl)c2C)C3C)c1` (stereo not drawn) [Example 388, (3-chloro-2-methylphenyl)(4-methyl-1-(4-methylpyridin-2-yl)-6,7-dihydro-1H-[1,2,3]triazolo[4,5-c]pyridin-5(4H)-yl)methanone] displayed a Ki at human P2X7 [2] (setting [5]) of 75.9 nM.
`CC1c2ncn(-c3ccccc3)c2CCN1C(=O)c1cccc(C(F)(F)F)c1Cl` (stereo not drawn) [Example 12, (2-Chloro-3-(trifluoromethyl)phenyl)(4-methyl-1-phenyl-6,7-dihydro-1H-imidazo[4,5-c]pyridin-5(4H)-yl)methanone]: the IC50 on human P2X7 [1] (setting [4]) was found to be 4.9 nM.
Regarding `Cc1cc(-n2nnc3c2CCN(C(=O)c2cccc(C(F)(F)F)c2Cl)C3C)ncn1` (stereo not drawn) [Example 402, (2-chloro-3-(trifluoromethyl)phenyl)(4-methyl-1-(6-methylpyrimidin-4-yl)-6,7-dihydro-1H-[1,2,3]triazolo[4,5-c]pyridin-5(4H)-yl)methanone], the IC50 at rat P2X7 (setting [3]) was found to be 14700 nM.
In the case of `C[C@@H]1Cc2c(nnn2-c2ccn[nH]2)CN1C(=O)c1cccc(C(F)(F)F)c1Cl` (single isomer, unassigned) [Example 350, (R*)-(2-chloro-3-(trifluoromethyl)phenyl)(6-methyl-1-(1H-pyrazol-5-yl)-6,7-dihydro-1H-[1,2,3]triazolo[4,5-c]pyridin-5(4H)-yl)methanone], the IC50 on human P2X7 [1] (setting [4]) was 6900 nM.
For `CC1c2n[nH]c(-c3ccc(F)cc3)c2CCN1C(=O)c1cccc(Cl)c1Cl` (stereo not drawn) [Example 435, (2,3-dichlorophenyl)(3-(4-fluorophenyl)-7-methyl-4,5-dihydro-2H-pyrazolo[3,4-c]pyridin-6(7H)-yl)methanone], the IC50 at rat P2X7 (setting [6]) amounted to 2780 nM.
As to `Cc1c(C(=O)N2CCc3c(ncn3-c3ccc(F)cn3)C2)cccc1C(F)(F)F` [Example 312, (1-(5-fluoropyridin-2-yl)-6,7-dihydro-1H-imidazo[4,5-c]pyridin-5(4H)-yl)(2-methyl-3-(trifluoromethyl)phenyl)methanone], on rat P2X7 (setting [3]), the IC50 came out at 4870 nM.
Consider `CC1c2ncn(-c3cnccn3)c2CCN1C(=O)c1cccc(C(F)(F)F)c1F` (stereo not drawn) [Example 14, (2-Fluoro-3-(trifluoromethyl)phenyl)(4-methyl-1-(pyrazin-2-yl)-6,7-dihydro-1H-imidazo[4,5-c]pyridin-5(4H)-yl)methanone], for which the IC50 on human P2X7 [1] (setting [4]) came out at 76.7 nM.
On the same count and under the same terms, for `C[C@@H]1c2ncn(-c3ccccn3)c2CCN1C(=O)c1cccc(Cl)c1Cl` (single isomer, unassigned) [Example 192, (R*)-(2,3-Dichlorophenyl)(4-methyl-1-(pyridin-2-yl)-6,7-dihydro-1H-imidazo[4,5-c]pyridin-5(4H)-yl)methanone] the value was 3270 nM.
Compound `Cc1cccc(-n2nnc3c2CCN(C(=O)c2cccc(C(F)(F)F)c2F)[C@H]3C)n1` (single isomer, unassigned) [Example 387, (S*)-(2-fluoro-3-(trifluoromethyl)phenyl)(4-methyl-1-(6-methylpyridin-2-yl)-6,7-dihydro-1H-[1,2,3]triazolo[4,5-c]pyridin-5(4H)-yl)methanone] gave a Ki at human P2X7 [2] (setting [5]) of 89.1 nM.
Regarding `CC1c2n[nH]c(-c3cnccn3)c2CCN1C(=O)c1cccc(C(F)(F)F)c1Cl` (stereo not drawn) [Example 438, (2-chloro-3-(trifluoromethyl)phenyl)(7-methyl-3-(pyrazin-2-yl)-4,5-dihydro-2H-pyrazolo[3,4-c]pyridin-6(7H)-yl)methanone], on human P2X7 [1] (Ca2+ flux, 250 μM BzATP, human P2X7 1321N1 cells), the IC50 was 13.7 nM.
For the compound `Cc1ccnc(-n2nnc3c2CCN(C(=O)c2cccc(OC(F)(F)F)c2)C3C)c1` (single isomer, unassigned) [Example 377, (S*)-(4-methyl-1-(4-methylpyridin-2-yl)-6,7-dihydro-1H-[1,2,3]triazolo[4,5-c]pyridin-5(4H)-yl)(3-(trifluoromethoxy)phenyl)methanone], the IC50 on rat P2X7 (setting [3]) turned out to be 15600 nM.
Turning to `CC1c2n[nH]c(-c3cnccn3)c2CCN1C(=O)c1cccc(Cl)c1Cl` (stereo not drawn) [Example 433, (2,3-dichlorophenyl)(7-methyl-3-(pyrazin-2-yl)-4,5-dihydro-2H-pyrazolo[3,4-c]pyridin-6(7H)-yl)methanone], the IC50 on rat P2X7 (setting [6]) was 2550 nM.
Regarding `CC1c2nnn(-c3ncccn3)c2CCN1C(=O)c1cccc(C(F)(F)F)c1Cl` (single isomer, unassigned) [Example 88, (4R*)-5-{[2-Chloro-3-(trifluoromethyl)phenyl]carbonyl}-4-methyl-1-pyrimidin-2-yl-4,5,6,7-tetrahydro-1H-[1,2,3]triazolo[4,5-c]pyridine], the Ki at human P2X7 [2] (setting [5]) is 12.6 nM; at human P2X7 [2] (tracer tritiated A-804598, 1 hour at 4° C.), 12.6 nM.
Consider `O=C(c1cccc(C(F)(F)F)c1Cl)N1CCc2c(nnn2-c2ncccn2)C1` [Example 65, 5-{[2-Chloro-3-(trifluoromethyl)phenyl]carbonyl}-1-pyrimidin-2-yl-4,5,6,7-tetrahydro-1H-[1,2,3]triazolo[4,5-c]pyridine], for which, at human P2X7 [1] (setting [4]), the IC50 worked out at 4.1 nM.
As to `CC1c2ncn(-c3ccc(F)cn3)c2CCN1C(=O)c1ccc(F)c(Cl)c1Cl` (stereo not drawn) [Example 261, (2,3-dichloro-4-fluorophenyl)(1-(5-fluoropyridin-2-yl)-4-methyl-6,7-dihydro-1H-imidazo[4,5-c]pyridin-5(4H)-yl)methanone], the IC50 at rat P2X7 (setting [3]) was 2620 nM.
Same read-out and setting: for `Cc1ccnc(-n2nnc3c2CCN(C(=O)c2cccc(C(F)(F)F)c2Cl)C3C)c1` (stereo not drawn) [Example 299, (2-chloro-3-(trifluoromethyl)phenyl)(4-methyl-1-(4-methylpyridin-2-yl)-6,7-dihydro-1H-[1,2,3]triazolo[4,5-c]pyridin-5(4H)-yl)methanone] the value was 31.1 nM.
